For the experiment, the system named is SU-DHL-4 xenograft. Put plainly: SU-DHL-4 DLBCL tumor xenograft study in mice. The note with it: 100 mg/kg oral dosing 1×/day. On the procedure:
Tumor Xenograft Studies in Mice
5×10^6 MV-4-11 or 1×10^7 SU-DHL-4 cells were collected and re-suspended in 0.1 mL of serum-free media with Matrigel (1:1 v/v) per mouse for subcutaneous inoculation in isoflurane anesthetized male BALB/c nude or C.B-17 scid mice, respectively (treated in accordance with AAALAC animal welfare guidelines). When the average tumor volumes reached 100-200 mm^3, tumor volume outliers were removed and the remaining animals randomly divided into groups of 6-8 with similar average tumor volumes in each group. […] Animals were intravenously dosed at 25 mg/kg, 50 mg/kg or 100 mg/kg 1×/week for 3 or 4 weeks. The appearance and behavior of each mouse was observed and recorded daily. Body weights and tumor volumes were measured and recorded every 2-4 days and the results were expressed as group means±SEM. Pairwise statistical comparisons between groups were performed by one-way ANOVA, and p<0.05 was considered statistically significant.

The text below walks through data of patent US20220168427A1 (Ranok Therapeutics (Hangzhou) Co. Ltd., priority 2019, published 2022).

Regarding `Cc1sc2c(c1C)C(c1ccc(Cl)cc1)=N[C@@H](CC(=O)Nc1ccc(O)cc1)c1nnc(C)n1-2` [OTX-015, reference compound], the T/C value came to 45%.
